Data on 74 molecules can be found in PubChem BioAssay AID602438 (Sanford-Burnham Center for Chemical Genomics, 2012).

Protein sequences, listed by entry. Tags and fused reporters are not part of them.
UniProt O14786, whole entry, looked up: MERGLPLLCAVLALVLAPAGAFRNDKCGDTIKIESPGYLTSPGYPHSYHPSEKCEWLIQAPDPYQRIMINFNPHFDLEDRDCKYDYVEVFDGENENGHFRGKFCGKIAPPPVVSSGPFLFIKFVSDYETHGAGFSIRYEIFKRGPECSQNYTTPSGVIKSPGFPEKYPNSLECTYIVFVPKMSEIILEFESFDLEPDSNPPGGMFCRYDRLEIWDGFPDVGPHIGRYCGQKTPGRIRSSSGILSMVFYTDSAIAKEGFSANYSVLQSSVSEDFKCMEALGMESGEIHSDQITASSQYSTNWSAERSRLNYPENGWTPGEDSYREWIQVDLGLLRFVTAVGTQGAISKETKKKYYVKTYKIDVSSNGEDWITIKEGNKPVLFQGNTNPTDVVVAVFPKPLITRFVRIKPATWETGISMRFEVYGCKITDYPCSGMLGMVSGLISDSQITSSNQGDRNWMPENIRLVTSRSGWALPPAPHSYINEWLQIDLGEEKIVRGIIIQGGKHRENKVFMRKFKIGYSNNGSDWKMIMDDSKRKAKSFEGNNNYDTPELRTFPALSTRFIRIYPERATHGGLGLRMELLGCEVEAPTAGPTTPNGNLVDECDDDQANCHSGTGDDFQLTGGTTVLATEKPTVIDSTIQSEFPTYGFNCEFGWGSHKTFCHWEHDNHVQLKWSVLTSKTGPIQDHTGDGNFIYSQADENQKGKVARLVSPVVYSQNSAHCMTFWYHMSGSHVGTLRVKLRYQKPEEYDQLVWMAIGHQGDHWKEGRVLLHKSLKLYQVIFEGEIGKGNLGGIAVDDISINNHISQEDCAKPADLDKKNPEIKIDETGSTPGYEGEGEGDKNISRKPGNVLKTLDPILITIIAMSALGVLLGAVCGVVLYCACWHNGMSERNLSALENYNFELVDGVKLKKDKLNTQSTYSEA

The list shows a part of the results, in another mix than the full data. The source made the active and inactive calls.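 How the source made its calls: active means inhibition or corrected inhibition above about 18%, plus a signal ratio from 0.5 to 1.5 (limit read from the data, passing the limit was not always enough); inactive means the rest.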

The target in the assay is Neuropilin-1 (Homo sapiens) (UniProt O14786). As to the kind of experiment: NRP-1/CendR peptide interaction modulators – biochemical, fluorescence polarization, uHTS, primary screen (AID 602438). Particulars: FAM-RPARPAR peptide binding to NRP-1, fluorescence polarization; at 25 µM; active compounds read high.
In general, inhibition refers to the relative decrease from the control value, in per cent. For `COP1(=S)c2c(C)nn(CCC#N)c2N=C(c2ccc(F)cc2)N1C` (centres undefined), the inhibition is inactive: 13.2%.

Turning to `COC(=O)C1(C)COP(=O)(N2CCCC2)OC1` (centres undefined), the inhibition was inactive: 0.3%.

As to `O=[N+]([O-])c1cc(Oc2ccc([N+](=O)[O-])cc2C(F)(F)F)cc([N+](=O)[O-])c1`, the inhibition is inactive: -1.1%.

In the case of `COc1ccc(N/C(=N/P(=O)(N2CCOCC2)N2CCOCC2)N2CCOCC2)cc1`, the inhibition is inactive: 4.1%.

Take `O=P1(N(CCCl)CCCl)Nc2ccccc2N1`: the inhibition is inactive: 5.1%.

With `O=P1(N(CCCl)CCCl)OCCCN1CCCl` (centres undefined), the inhibition is inactive: 10.6%.

For `COc1ccc2nc(NP(=O)(c3ccccc3)c3ccccc3)sc2c1`, the inhibition was active: 19%.

Take `COc1cc(I)ccc1[As](=O)(O)O`: the inhibition was inactive: 1.1%.

With `Cc1c2c(nc3ccccc13)SC(C(Cl)Cl)C2` (centres undefined), the inhibition was inactive: 0.7%.

For `O=C(OC1CN2CCC1CC2)C12CC3CC(CC(C3)C1)C2` (centres undefined), the inhibition is inactive: 4.1%.

With `Cc1cc(=O)[nH]c(N[N+](=O)[O-])n1`, the inhibition was inactive: -4.3%.

For `CC(C)NC(=O)NP(=O)(Oc1ccccc1)Oc1ccccc1`, the inhibition was inactive: 16.4%.

As for `CCN(CC)C(=S)SC(NC=O)C(Cl)(Cl)Cl` (centres undefined), the inhibition is inactive: -1.2%.

As for `O=C(OC1CN2CCC1CC2)c1cccc2[nH]cnc12` (centres undefined), the inhibition was inactive: 0.8%.

For the molecule `O=[N+]([O-])c1cc([N+](=O)[O-])c(-c2ccn[nH]2)s1`, the inhibition was inactive: 12.4%.

Consider `ClCCSc1nnc(-c2cccnc2)o1`, for which the inhibition is inactive: 16.7%.

Consider `COC(=O)C1(C)COP(=O)(N2CCCCCC2)OC1` (centres undefined), for which the inhibition is inactive: -4.3%.

Take `CC(C)c1ccc(OP(=O)(Nc2ccccn2)Oc2ccccc2F)cc1` (centres undefined): the inhibition is inactive: -4.3%.

For `Cc1ccc(OP(=O)(Nc2ccc([N+](=O)[O-])cn2)Oc2ccc(C)cc2)cc1`, the inhibition is inactive: 6.3%.

Regarding `[N-]=[N+]=NC1CCCCC1NC(=O)c1cc([N+](=O)[O-])cc([N+](=O)[O-])c1` (centres undefined), the inhibition was inactive: 11.4%.

`Cc1ccc2nc3c(c(C)c2c1)CC(C(Cl)Cl)S3` (centres undefined): the inhibition is inactive: -7.6%.

With `C[As](=O)(O)c1cccc(C(=O)O)c1`, the inhibition was inactive: 18%.

Turning to `O=[As](O)(c1ccc(O)cc1)c1ccccc1O`, the inhibition is inactive: -5.3%.

In the case of `O=[N+]([O-])c1ccc(-c2cc([N+](=O)[O-])c(O)c([N+](=O)[O-])c2)cc1`, the inhibition is inactive: -17.1%.

In the case of `COc1cc(C(=O)NCC2(N3CCOCC3)CCCCC2)ccc1OCC(C)C`, the inhibition is inactive: 1.4%.

With `N#CCCN(C(=O)COC(=O)C(O)(c1ccccc1)c1ccccc1)c1ccc(F)cc1`, the inhibition is inactive: 7.3%.

With `CN(C(=O)Cc1ccccc1)[C@@H]1CC[C@]2(CCCO2)C[C@H]1N1CCCC1`, the inhibition was inactive: -16.5%.

`CCOP1(=S)c2c(C)nn(CCC#N)c2N=C(c2ccc(F)cc2)N1C` (centres undefined): the inhibition is inactive: 16%.

On to `O=[N+]([O-])c1ccc2c(c1)nnn2O`, for which the inhibition was inactive: 0.2%.

Consider `CN(C)C(=O)c1cc([N+](=O)[O-])cc2c1-c1c(cc([N+](=O)[O-])cc1[N+](=O)[O-])C2=O`, for which the inhibition is inactive: 21.9%.

On to `CN(C(=O)Cc1ccc(Cl)c(Cl)c1)[C@H]1CC[C@@]2(CCCO2)C[C@@H]1N1CCCC1`, for which the inhibition was inactive: -0.9%.

Take `NC(=O)Nc1ccc([As](=O)(O)O)cc1`: the inhibition is inactive: 10.6%.

As for `O=C(O)COc1ccc([As](=O)(O)O)cc1[N+](=O)[O-]`, the inhibition is inactive: 16.9%.

On to `Nc1ccccc1[As](=O)(O)c1ccccc1`, for which the inhibition is inactive: 0.2%.

On to `CCOP1(=S)c2c(C)nn(CCC#N)c2N=C(c2ccccc2F)N1C` (centres undefined), for which the inhibition is inactive: -17.2%.

On to `O=P(Nc1nccs1)(Oc1ccccc1)Oc1ccccc1`, for which the inhibition was inactive: -0.6%.

On to `O=P(Nc1nccs1)(c1ccccc1)c1nc2ccccc2s1` (centres undefined), for which the inhibition is inactive: -2.4%.

In the case of `CS(=O)(=O)c1cc([N+](=O)[O-])c2no[n+]([O-])c2c1`, the inhibition is inactive: 2.2%.

As for `COc1cc(C2NCCC3(OCCO3)C2(C)C)cc(OC)c1OC` (centres undefined), the inhibition is inactive: -11.6%.

Turning to `CCOP(=O)(Nc1cccc2ccccc12)OCC`, the inhibition is inactive: 8.5%.

As to `Cc1ccc(NCCc2c([N+](=O)[O-])cc([N+](=O)[O-])cc2[N+](=O)[O-])cc1`, the inhibition was inactive: 1.4%.

`Nc1cccc2c([As](=O)(O)O)cccc12`: the inhibition was inactive: -43.1%.

For the molecule `CCCOP(=S)(Nc1nc(N)cc(=O)[nH]1)OCCC`, the inhibition is inactive: -13.3%.

For `Cc1cccc(OCC(=O)OC2CN3CCC2CC3)c1` (centres undefined), the inhibition was inactive: -6%.

Regarding `O=[As](O)(c1cccc(O)c1)c1cccc(O)c1`, the inhibition is inactive: 2.3%.

With `O=C(OC1CN2CCC1CC2)c1ccc(Cl)cc1` (centres undefined), the inhibition is inactive: -9.1%.

In the case of `O=[As](O)(O)c1cccnc1`, the inhibition was inactive: 7.7%.

As to `COc1cc(C(=O)NCC2(N3CCOCC3)CCCCC2)cc(Cl)c1OC(C)C`, the inhibition was inactive: 3.4%.

`CS(=O)(=O)c1ccc(Cl)c(NC(=O)COC(=O)C(O)(c2ccccc2)c2ccccc2)c1`: the inhibition is inactive: 6.4%.

Take `CN(C(=O)Cc1ccc(Cl)c(Cl)c1)[C@@H]1CCCC[C@H]1N1CCCC1`: the inhibition was inactive: 5.4%.

In the case of `CC(C)/C=N\N=C(\N)N[N+](=O)[O-]`, the inhibition was inactive: -5%.

For the molecule `CC1(CBr)Cn2c(nc3ccccc3c2=O)S1` (centres undefined), the inhibition is inactive: 5.7%.

Consider `COc1ccccc1CNC(=O)COC(=O)C(O)(c1ccccc1)c1ccccc1`, for which the inhibition is inactive: 5.1%.

With `Clc1n[nH]nc1-c1nn[nH][15n]1`, the inhibition was inactive: -3.9%.

Regarding `O=P1(N(CCCl)CCCl)NCCC(C(F)(F)F)O1` (centres undefined), the inhibition is inactive: 4.2%.

For the molecule `CC(C)(C)C(=O)NC(Sc1ncccn1)C(Cl)(Cl)Cl` (centres undefined), the inhibition is inactive: -2.5%.

Regarding `CCC1=CC2Cc3nc4ccc(Cl)cc4c(N)c3C(C1)C2` (centres undefined), the inhibition is inactive: -6.5%.

As for `O=P1(Nc2ccccn2)COc2ccccc2OC1`, the inhibition was inactive: -7%.

For `CCOP(=O)(NC(=NC(C)c1ccccc1)NC(C)c1ccccc1)OCC` (centres undefined), the inhibition is inactive: 1.8%.

Take `CCOP(=O)(Nc1ccc(C)cn1)OCC`: the inhibition is inactive: 7.8%.

In the case of `CN(CCCl)Cc1cc(Cl)c(NC2=NCCN2)c(Cl)c1`, the inhibition is inactive: -5.2%.

Take `Nc1cccc([As](=O)(O)c2ccccc2)c1`: the inhibition is inactive: -8.7%.

Turning to `Cc1ccc(OCC(=O)OC2CN3CCC2CC3)cc1` (centres undefined), the inhibition is inactive: 9.2%.

On to `O=[As](O)(c1cccs1)c1cccs1`, for which the inhibition was inactive: 5.9%.

For the molecule `NS(=O)(=O)c1cccc(NC(=O)COC(=O)C(O)(c2ccccc2)c2ccccc2)c1`, the inhibition is inactive: 9.9%.

For the molecule `O=P1(Nc2ccc(Br)cn2)COc2ccccc2OC1`, the inhibition is inactive: 0.6%.

As for `Cc1ccc(S(=O)(=O)N(CCCN)CCCc2c(C)nc(N)[nH]c2=O)cc1`, the inhibition was inactive: 3.5%.

For the molecule `O=P1(Nc2ncccn2)COc2ccccc2OC1`, the inhibition was inactive: 17.8%.

For `CN(C)C1(CNC(=O)c2ccc(S(C)(=O)=O)cc2)CCCCC1`, the inhibition is inactive: -8.2%.

With `O=C(/C=C/c1ccccc1)OC1CN2CCC1CC2` (centres undefined), the inhibition was inactive: -7.4%.

As for `CCCC1OP(=O)(Nc2ccccc2)OCC1CC` (centres undefined), the inhibition was inactive: 1.1%.

`Cc1nn(-c2ccccc2)c2c1P(=O)(N1CCOCC1)N(C)C(c1ccccc1)=N2` (centres undefined): the inhibition was inactive: 10.3%.

With `Cc1ccc(C(=O)OC2CN3CCC2CC3)cc1` (centres undefined), the inhibition is inactive: 4.8%.

Regarding `CC1CCC(C(C)C)C(OP(=O)(Nc2ccccn2)c2ccccc2)C1` (centres undefined), the inhibition is inactive: 7%.
